Measurements taken from patent publication US20090203708A1, “NOVEL SUBSTITUTED-1-H-QUINAZOLINE-2,4-DIONE DERIVATIVES, PREPARATION METHOD THEREOF AND PHARMACEUTICAL COMPOSITION CONTAINING THE SAME” (Korea Research Institute of Chemical Technology, priority 2006, published 2009).

By UniProt entry, the sequences of proteins in these tests, tags left out.
UniProt P50406, whole entry: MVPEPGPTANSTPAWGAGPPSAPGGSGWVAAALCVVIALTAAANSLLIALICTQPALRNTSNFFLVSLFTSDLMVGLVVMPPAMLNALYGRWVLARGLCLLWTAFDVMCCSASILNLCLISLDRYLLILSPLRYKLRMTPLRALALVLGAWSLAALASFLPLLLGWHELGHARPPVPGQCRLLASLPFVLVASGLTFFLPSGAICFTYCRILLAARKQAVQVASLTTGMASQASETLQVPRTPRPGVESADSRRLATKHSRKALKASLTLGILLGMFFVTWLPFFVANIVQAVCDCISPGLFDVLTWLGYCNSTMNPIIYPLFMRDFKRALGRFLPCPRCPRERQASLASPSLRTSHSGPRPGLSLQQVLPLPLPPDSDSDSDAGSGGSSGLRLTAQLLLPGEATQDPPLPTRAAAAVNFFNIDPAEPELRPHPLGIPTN

Biological target: T1, HeLa cells transfected with human 5-HT6 receptor (Homo sapiens, UniProt P50406)
T1 construct: expressed in transfected cells; host or cells: HeLa
Experiment: Serotonin-stimulated cAMP accumulation in HeLa cells (EIA)
Type: cell-based
Details: FIG. 1

`CSc1ccc2c(c1)C(N1CCN(C)CC1)Cc1ccccc1S2` (stereo not shown) [methiothepin, reference compound] was tested, and the “effect on serotonin-stimulated cAMP accumulation (in words)” value was “inhibited serotonin-stimulated cAMP accumulation in a dose-dependent manner”.
